Literature values as cited in patent publication US8168800B2, “Aβ-binding small molecules” (The Regents of the University of California, priority 2007, dated 2012).

Protein sequences, listed by entry. Tags and fused reporters are not part of them. Residues count along the entry.
UniProt P05067, 672-713 limits assumed: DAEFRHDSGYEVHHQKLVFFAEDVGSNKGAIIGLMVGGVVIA

Target: T1, Aβ oligomers (biotinylated AβO from Aβ1-42 peptide) (Homo sapiens, UniProt P05067)
T1 construct: prepared by mixing a 1:10 ratio of biotinylated and unbiotinylated Aβ1-42 peptide
Settings: from Maezawa et al. J. Neurochem. 2007; read-out: calculated binding affinity (KD); cited from earlier work

Cc1ccc2c(c1)sc(-c1ccc(N(C)C)cc1)[n+]2C [Thioflavin T]
Kd: 498 nM
